Measured values: the DeepSol protein solubility set

Test: soluble on expression in E. coli; label from the status in PepcDB or PDB records

Row | Sequence | soluble on expression in E. coli
1 | VVNGIPTRTNIGWMVSLRYRNKHICGGSLIKESWVLTARQCFPSRDLKDYEAWLGIHDVHGRGDEKCKQVLNVSQLVYGPEGSDLVLMKLARPAVLDDFVSTIDLPNYGSTIPEKTSCSVYGWGYTGLINYDGLLRVAHLYIMGNEKCSQHHRGKVTLNESEICAGAEKIGSGPCEGDYGGPLVCEQHKMRMVLGVIVPGRGCAIPNRPGIFVRVAYYAKWIHKIILTYKVPQS | soluble
2 | MGHHHHHHSHMANSAGSMANSAGSMDELFPLIFPAEPAQASGPYVEIIEQPKQRGMRFRYKCEGRSAGSIPGERSTDTTKTHPTIKINGYTGPGTVRISLVTKDPPHRPHPHELVGKDCRDGFYEAELCPDRCIHSFQNLGIQCVKKRDLEQAISQRIQTNNNPFQVPIEEQRGDYDLNAVRLCFQVTVRDPSGRPLRLPPVLPHPIFDNRAPNTAELKICRVNRNSGSCLGGDEIFLLCDKVQKEDIEVYFTGPGWEARGSFSQADVHRQVAIVFRTPPYADPSLQAPVRVSMQLRRPSDRELSEPMEFQYLPDTDDRHRIEEKRKRTYETFKSIMKKSPFSGPTDPRPPPRRIAVPSRSSASVPKPAPQPYPFTSSLSTINYDEFPTMVFPSGQISQASALAPAPPQVLPQAPAPAPAPAMVSALAQAPAPVPVLAPGPPQAVAPPAPKPTQAGEGTLSEALLQLQFDDEDLGALLGNSTDPAVFTDLASVDNSEFQQLLNQGIPVAPHTTEPMLMEYPEAITRLVTGAQRPPDPAPAPLGAPGLPNGLLSGDEDFSSIADMDFSALLSQISS | not soluble
